Laboratory results taken from US9532972B2, “Increasing taxane sensitivity in cancer cells” (UNIVERSITY OF CENTRAL FLORIDA RESEARCH FOUNDATION, INC., priority 2012, dated 2017).

What was measured:
[1] = tested on: MDA-MB-231; experiment: MTS cell viability assay
[2] = tested on: P69; experiment: MTS cell viability assay

CC(=O)O[C@@]12CO[C@@H]1C[C@H](O)[C@@]1(C)C(=O)[C@H](O)C3=C(C)[C@@H](OC(=O)[C@H](O)[C@@H](NC(=O)OC(C)(C)C)c4ccccc4)C[C@@](O)([C@@H](OC(=O)c4ccccc4)[C@H]21)C3(C)C [docetaxel]
population of viable cells [1]: smaller population of viable cells
population of viable cells [2]: smaller population of viable cells
